Biological target: recombinant human E-selectin/CD63E Fc Chimera (Homo sapiens, UniProt P16581)
Assay: E-Selectin Activity - Analysis by SPR
Conditions: Biacore X100, E-selectin captured on anti-human IgG (Fc) chip

Sequences of proteins named here, by UniProt entry; tags and fusion partners are left off. A line that says so, or that is headed by a name, gives the form on record, which may keep a tag or linker. Residues count along the entry.
UniProt P16581, 22-556 with tags or gaps limits assumed: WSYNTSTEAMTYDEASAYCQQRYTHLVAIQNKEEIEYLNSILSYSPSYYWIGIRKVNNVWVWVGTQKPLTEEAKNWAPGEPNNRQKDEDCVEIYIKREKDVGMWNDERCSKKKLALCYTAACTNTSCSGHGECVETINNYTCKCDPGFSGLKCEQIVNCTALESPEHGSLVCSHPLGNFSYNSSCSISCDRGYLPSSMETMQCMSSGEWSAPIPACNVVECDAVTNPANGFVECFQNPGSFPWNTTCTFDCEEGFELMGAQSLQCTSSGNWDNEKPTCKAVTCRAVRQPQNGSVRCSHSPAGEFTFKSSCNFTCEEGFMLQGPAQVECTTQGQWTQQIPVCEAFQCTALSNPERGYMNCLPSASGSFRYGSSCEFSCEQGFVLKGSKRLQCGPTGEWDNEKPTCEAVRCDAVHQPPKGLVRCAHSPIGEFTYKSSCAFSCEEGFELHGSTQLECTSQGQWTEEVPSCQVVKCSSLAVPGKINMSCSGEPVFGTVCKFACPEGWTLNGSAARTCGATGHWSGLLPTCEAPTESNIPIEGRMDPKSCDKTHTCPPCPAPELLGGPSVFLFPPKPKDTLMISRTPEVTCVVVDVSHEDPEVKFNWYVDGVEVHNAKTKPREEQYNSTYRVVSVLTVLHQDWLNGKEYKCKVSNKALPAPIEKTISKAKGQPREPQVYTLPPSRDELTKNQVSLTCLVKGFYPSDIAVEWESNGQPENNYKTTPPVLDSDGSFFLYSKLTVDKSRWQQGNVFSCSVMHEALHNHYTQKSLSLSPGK

## CC[C@H]1C[C@@H](C(=O)NCCNC(=O)c2cn(CCOCCOCCOCCOCCOCCn3cc(C(=O)NCCNC(=O)[C@@H]4C[C@H](CC)[C@@H](O[C@@H]5O[C@@H](C)[C@@H](O)[C@@H](O)[C@@H]5O)[C@H](O[C@@H]5O[C@H](CO)[C@H](O)[C@H](O[C@@H](CC6CCCCC6)C(=O)N6CCC6)[C@H]5NC(C)=O)C4)nn3)nn2)C[C@@H](O[C@@H]2O[C@H](CO)[C@H](O)[C@H](O[C@@H](CC3CCCCC3)C(=O)N3CCC3)[C@H]2NC(C)=O)[C@@H]1O[C@@H]1O[C@@H](C)[C@@H](O)[C@@H](O)[C@@H]1O
  Kd: 2 nM

Source: patent publication US20220257775A1 (GLYCOMIMETICS, INC., priority 2019, published 2022)
